# Test results taken from PubChem BioAssay AID2777 (Johns Hopkins Ion Channel Center, 2010).
# This is a selection; strong and weak results do not stand in their true shares. Activity calls are given as the source filed them.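 How the source made its calls: active means rise or fall in signal beyond 3 SD of buffer-only wells in both replicate plates, either sign; inactive means the rest.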
# Tested on: transient receptor potential cation channel C4 (TRPC4), mouse
# Experiment: mouse TRPC4 modulation by TRPC6 hits, confirmation, selectivity assay for TRPC6 inhibitor project, cell-based, HEK293 TRPC4/mu-opioid, membrane potential dye (AID 2777);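 further: integrated kinetic ratio of fluorescence range over baseline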
# Conditions: membrane potential fluorescence, at 10 µM
SMILES,"activity change, negative = inhibition",outcome
O=C(OC1CN2CCC1CC2)C1c2ccccc2Oc2ccccc21 (configuration not stated),active: 7.08%,–
CCC(CO)(C(=O)OC1CN2CCC1CC2)c1ccccc1 (configuration not stated),–,inactive
